PubChem BioAssay AID463075 (University of Pittsburgh Molecular Library Screening Center, 2010)
Only a part is listed here, and it is no random draw. Active and inactive are the calls of the source.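 Rule for the calls: active = activation, meaning protection from cell death, of at least 50% relative to plate controls; inactive = activation below 50%.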

Experiment: inhibitors of TNF-alpha triggered necroptosis, primary screen, cell-based, Jurkat FADD-/-, single concentration (AID 463075);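 note: necroptosis triggered by 40 ng/mL TNF-alpha added together with compound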
Conditions: Jurkat FADD-/- TNF necroptosis rescue, ATP luminescence, 24 h; at 10 µM; stronger effect = higher value; 0 = TNF only, 100 = no-TNF cells

Structure (SMILES)	activation (protection from cell death)
CN1CCC(Nc2cccc(F)c2)CC1	inactive: -1.7%
CC(C)c1ccc(NC2CCN(C(=O)OC(C)(C)C)CC2)cc1	inactive: 0.557%
CN(C)c1cccc(C(=O)NCC2(N3CCCCC3)CCCCC2)c1	inactive: 1.3%
COc1ccc(CN(CCCl)CCCl)cc1Cl	inactive: -6.58%
O=C(NCC1(N2CCOCC2)CCCCC1)c1cc(=O)[nH]c2ccccc12	inactive: -0.629%
COc1ccc(NC2CCN(C(=O)OC(C)(C)C)CC2)cc1	inactive: 0.243%
CN1CCN(CCOC(=O)C(O)(c2ccccc2)c2ccccc2)CC1	inactive: 1.68%
N#CC1(Nc2ccccc2)CCN(CCc2ccccc2)CC1	inactive: 1.16%
O=C(NCC1(N2CCCCC2)CCCCC1)c1cccc([N+](=O)[O-])c1	inactive: 0.0944%
Cc1ccc(OCC(C)C)c(CN(CCCl)CCCl)c1	inactive: -29.2%
CCOc1ccc(C)cc1CN(CCCl)CCCl	inactive: -25.8%
COc1ccc(NC2CCN(CCc3ccccc3)CC2)c(OC)c1	inactive: 1.86%
O=C(NCC1(N2CCOCC2)CCCCC1)c1cc2ccccc2o1	inactive: 0.236%
O=C(OC1CN2CCC1CC2)C1c2ccccc2Oc2ccccc21 (centres undefined)	inactive: 0.14%
N#CC1(Nc2ccccc2)CCN(Cc2ccccc2)CC1	inactive: 0.87%
CCOC(=O)N1CCC(Nc2ccc(OC)cc2)CC1	inactive: 0.42%
COc1ccc(C(=O)NCC2(N3CCCCC3)CCCCC2)c(OC)c1OC	inactive: 0.596%
COc1cc(OC)cc(C(=O)NCC2(N3CCOCC3)CCCCC2)c1	inactive: 0.992%
CCC(CO)(C(=O)OC1CN2CCC1CC2)c1ccccc1 (centres undefined)	inactive: 1.73%
CCCOc1ccc(C)cc1CN(CCCl)CCCl	inactive: -28.1%
CCOc1ncccc1C(=O)NCC1(N2CCOCC2)CCCCC1	inactive: 0.693%
CC(C)(C)OC(=O)N1CCC(Nc2ccccc2)CC1	inactive: 0.739%
CCN1CCC(Nc2cccc(F)c2)CC1	inactive: 0.309%
CN(C)c1ccc(C(=O)NCC2(N3CCCCC3)CCCCC2)cc1	inactive: 0.168%
c1ccc(CN2CCC(Nc3ccccc3)CC2)cc1	inactive: 2.08%
N#Cc1ccc(C(=O)NCC2(N3CCCCC3)CCCCC2)cc1	inactive: 0.736%
N/C(=N\O)c1c(N)no[n+]1[O-]	inactive: -0.28%
O=C(OC1CN2CCC1CC2)C1c2ccccc2C=Cc2ccccc21 (centres undefined)	inactive: 3.07%
COc1ccc(C(=O)NCC2(N3CCOCC3)CCCCC2)cc1OC	inactive: 0.35%
